In PubChem BioAssay (NCI):
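Each compound was tested at five concentrations against cells in 96-well plates for 48 hours. Here, GI50 denotes the concentration required for 50% inhibition of growth. Definition used: TGI = concentration required for complete inhibition of growth.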

Columns and labels:
Test in all cases: NCI tumour cell line growth inhibition, 48 h
A549 NSCLC = test system: A549 NSCLC
MOLT-4 leukemia = test system: MOLT-4 leukemia
MDA-MB-231 breast = test system: MDA-MB-231 breast
HCT-116 colon = test system: HCT-116 colon
NCI-H226 lung = test system: NCI-H226 lung
SK-MEL-5 melanoma = test system: SK-MEL-5 melanoma
NCI/ADR-RES ovarian = test system: NCI/ADR-RES ovarian
IGROV1 ovarian = test system: IGROV1 ovarian
HOP-92 NSCLC = test system: HOP-92 NSCLC
OVCAR-5 ovarian = test system: OVCAR-5 ovarian
SNB-75 CNS = test system: SNB-75 CNS
MCF7 breast = test system: MCF7 breast
CAKI-1 renal = test system: CAKI-1 renal
BT-549 breast = test system: BT-549 breast
DU-145 prostate = test system: DU-145 prostate
NCI-H322M lung = test system: NCI-H322M lung
SN12C renal = test system: SN12C renal
RXF 393 renal = test system: RXF 393 renal
UACC-257 melanoma = test system: UACC-257 melanoma
NCI-H522 lung = test system: NCI-H522 lung
HCT-15 colon = test system: HCT-15 colon
SF-295 CNS = test system: SF-295 CNS
U251 CNS = test system: U251 CNS
SF-539 CNS = test system: SF-539 CNS
KM12 colon = test system: KM12 colon
MALME-3M melanoma = test system: MALME-3M melanoma
SK-MEL-2 melanoma = test system: SK-MEL-2 melanoma
HOP-62 NSCLC = test system: HOP-62 NSCLC
NCI-H23 lung = test system: NCI-H23 lung
LOX IMVI melanoma = test system: LOX IMVI melanoma
HT29 colon = test system: HT29 colon
SF-268 CNS = test system: SF-268 CNS
UO-31 renal = test system: UO-31 renal
PC-3 prostate = test system: PC-3 prostate
OVCAR-4 ovarian = test system: OVCAR-4 ovarian
MDA-MB-435 = test system: MDA-MB-435
SK-MEL-28 melanoma = test system: SK-MEL-28 melanoma
HCC-2998 colon = test system: HCC-2998 colon
TK-10 renal = test system: TK-10 renal
K-562 leukemia = test system: K-562 leukemia
OVCAR-8 ovarian = test system: OVCAR-8 ovarian
HL-60(TB) leukemia = test system: HL-60(TB) leukemia
T-47D breast = test system: T-47D breast
SR leukemia = test system: SR leukemia
COLO 205 colon = test system: COLO 205 colon
NCI-H460 lung = test system: NCI-H460 lung
EKVX NSCLC = test system: EKVX NSCLC
SNB-19 CNS = test system: SNB-19 CNS
786-0 renal = test system: 786-0 renal
HS 578T breast = test system: HS 578T breast
RPMI-8226 leukemia = test system: RPMI-8226 leukemia
OVCAR-3 ovarian = test system: OVCAR-3 ovarian
ACHN renal = test system: ACHN renal
SK-OV-3 ovarian = test system: SK-OV-3 ovarian
SW-620 colon = test system: SW-620 colon
A498 renal = test system: A498 renal
CCRF-CEM leukemia = test system: CCRF-CEM leukemia
UACC-62 melanoma = test system: UACC-62 melanoma

SMILES: Cc1ccc(N(CCCl)CCCl)cc1
- GI50 (A549 NSCLC): 6.87 µM
- TGI (A549 NSCLC): > 100 µM
- GI50 (MOLT-4 leukemia): 1.15 µM
- TGI (MOLT-4 leukemia): 29 µM
- GI50 (MDA-MB-231 breast): 27.6 µM
- TGI (MDA-MB-231 breast): > 100 µM
- GI50 (HCT-116 colon): 8.56 µM
- TGI (HCT-116 colon): 30.8 µM
- GI50 (NCI-H226 lung): 11.9 µM
- TGI (NCI-H226 lung): 35.3 µM
- GI50 (SK-MEL-5 melanoma): 12.3 µM
- TGI (SK-MEL-5 melanoma): 26.6 µM
- GI50 (NCI/ADR-RES ovarian): 4.51 µM
- TGI (NCI/ADR-RES ovarian): > 100 µM
- GI50 (IGROV1 ovarian): 11.3 µM
- TGI (IGROV1 ovarian): 73.2 µM
- GI50 (HOP-92 NSCLC): 4.44 µM
- TGI (HOP-92 NSCLC): 43.7 µM
- GI50 (OVCAR-5 ovarian): 23.1 µM
- TGI (OVCAR-5 ovarian): > 100 µM
- GI50 (SNB-75 CNS): 3.14 µM
- TGI (SNB-75 CNS): 18.7 µM
- GI50 (MCF7 breast): 0.977 µM
- TGI (MCF7 breast): 49.2 µM
- GI50 (CAKI-1 renal): 0.491 µM
- TGI (CAKI-1 renal): > 100 µM
- GI50 (BT-549 breast): 16.8 µM
- TGI (BT-549 breast): 38 µM
- GI50 (DU-145 prostate): 2.24 µM
- TGI (DU-145 prostate): 19.9 µM
- GI50 (NCI-H322M lung): 28.9 µM
- TGI (NCI-H322M lung): > 100 µM
- GI50 (SN12C renal): 1.68 µM
- TGI (SN12C renal): > 100 µM
- GI50 (RXF 393 renal): 3.96 µM
- TGI (RXF 393 renal): 16.7 µM
- GI50 (UACC-257 melanoma): 10.8 µM
- TGI (UACC-257 melanoma): 45.9 µM
- GI50 (NCI-H522 lung): 3.59 µM
- TGI (NCI-H522 lung): 17.4 µM
- GI50 (HCT-15 colon): 13.6 µM
- TGI (HCT-15 colon): > 100 µM
- GI50 (SF-295 CNS): 2.91 µM
- TGI (SF-295 CNS): > 100 µM
- GI50 (U251 CNS): 5.01 µM
- TGI (U251 CNS): 68.2 µM
- GI50 (SF-539 CNS): 2.28 µM
- TGI (SF-539 CNS): 40.6 µM
- GI50 (KM12 colon): 23.9 µM
- TGI (KM12 colon): > 100 µM
- GI50 (MALME-3M melanoma): 13.5 µM
- TGI (MALME-3M melanoma): 43.9 µM
- GI50 (SK-MEL-2 melanoma): 11.7 µM
- TGI (SK-MEL-2 melanoma): 29.3 µM
- GI50 (HOP-62 NSCLC): 3.85 µM
- TGI (HOP-62 NSCLC): 31.7 µM
- GI50 (NCI-H23 lung): 3.04 µM
- TGI (NCI-H23 lung): 41.4 µM
- GI50 (LOX IMVI melanoma): 8.59 µM
- TGI (LOX IMVI melanoma): 35.2 µM
- GI50 (HT29 colon): 10.5 µM
- TGI (HT29 colon): 62.7 µM
- GI50 (SF-268 CNS): 1.32 µM
- TGI (SF-268 CNS): 25.6 µM
- GI50 (UO-31 renal): 13 µM
- TGI (UO-31 renal): > 100 µM
- GI50 (PC-3 prostate): 26.1 µM
- TGI (PC-3 prostate): > 100 µM
- GI50 (OVCAR-4 ovarian): 14.3 µM
- TGI (OVCAR-4 ovarian): 38 µM
- GI50 (MDA-MB-435): 12 µM
- TGI (MDA-MB-435): 29.4 µM
- GI50 (SK-MEL-28 melanoma): 16.1 µM
- TGI (SK-MEL-28 melanoma): 61.3 µM
- GI50 (HCC-2998 colon): 14.8 µM
- TGI (HCC-2998 colon): 40.6 µM
- GI50 (TK-10 renal): 2.92 µM
- TGI (TK-10 renal): 38.6 µM
- GI50 (K-562 leukemia): 4.3 µM
- TGI (K-562 leukemia): > 100 µM
- GI50 (OVCAR-8 ovarian): 4.55 µM
- TGI (OVCAR-8 ovarian): 63.6 µM
- GI50 (HL-60(TB) leukemia): 0.868 µM
- TGI (HL-60(TB) leukemia): 21.7 µM
- GI50 (T-47D breast): 2.94 µM
- TGI (T-47D breast): 31 µM
- GI50 (SR leukemia): 0.454 µM
- TGI (SR leukemia): 36.7 µM
- GI50 (COLO 205 colon): 14.2 µM
- TGI (COLO 205 colon): 72.5 µM
- GI50 (NCI-H460 lung): 0.69 µM
- TGI (NCI-H460 lung): > 100 µM
- GI50 (EKVX NSCLC): 28.9 µM
- TGI (EKVX NSCLC): > 100 µM
- GI50 (SNB-19 CNS): 3.9 µM
- TGI (SNB-19 CNS): > 100 µM
- GI50 (786-0 renal): 2.67 µM
- TGI (786-0 renal): 19.7 µM
- GI50 (HS 578T breast): 19.4 µM
- TGI (HS 578T breast): > 100 µM
- GI50 (RPMI-8226 leukemia): 16.7 µM
- TGI (RPMI-8226 leukemia): > 100 µM
- GI50 (OVCAR-3 ovarian): 13.1 µM
- TGI (OVCAR-3 ovarian): 32.4 µM
- GI50 (ACHN renal): 1.05 µM
- TGI (ACHN renal): > 100 µM
- GI50 (SK-OV-3 ovarian): 4.45 µM
- TGI (SK-OV-3 ovarian): 32 µM
- GI50 (SW-620 colon): 6.4 µM
- TGI (SW-620 colon): > 100 µM
- GI50 (A498 renal): 13.9 µM
- TGI (A498 renal): 48.1 µM
- GI50 (CCRF-CEM leukemia): 1.39 µM
- TGI (CCRF-CEM leukemia): > 100 µM
- GI50 (UACC-62 melanoma): 1.52 µM
- TGI (UACC-62 melanoma): 19.3 µM
